The values below come from publication PMC11295067.

Sequences of proteins named here, by UniProt entry; tags and fusion partners are left off. A change or cut given only in a name is not applied to a line headed by its entry. Residues count along the entry.
UniProt P50148: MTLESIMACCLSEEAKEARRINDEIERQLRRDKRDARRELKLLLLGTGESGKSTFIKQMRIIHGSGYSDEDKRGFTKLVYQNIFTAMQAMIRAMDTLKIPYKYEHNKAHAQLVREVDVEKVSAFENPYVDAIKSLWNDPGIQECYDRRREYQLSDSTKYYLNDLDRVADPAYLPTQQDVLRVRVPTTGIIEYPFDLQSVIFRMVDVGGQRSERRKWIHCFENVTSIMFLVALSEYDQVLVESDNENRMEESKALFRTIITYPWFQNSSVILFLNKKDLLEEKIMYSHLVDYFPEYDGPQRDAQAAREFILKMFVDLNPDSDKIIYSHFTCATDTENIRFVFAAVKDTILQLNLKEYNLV
UniProt P63096, 2-354, chain 1 of 3: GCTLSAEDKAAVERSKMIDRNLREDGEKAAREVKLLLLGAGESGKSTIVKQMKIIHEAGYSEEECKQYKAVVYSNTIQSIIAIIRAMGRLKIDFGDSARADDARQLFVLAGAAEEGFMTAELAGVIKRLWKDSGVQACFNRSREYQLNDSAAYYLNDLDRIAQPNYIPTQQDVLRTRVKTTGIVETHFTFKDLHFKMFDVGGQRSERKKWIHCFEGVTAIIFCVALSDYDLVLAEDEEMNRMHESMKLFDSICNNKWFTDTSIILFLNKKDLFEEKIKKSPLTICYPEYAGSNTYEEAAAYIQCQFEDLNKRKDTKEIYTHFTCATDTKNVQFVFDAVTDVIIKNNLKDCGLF

Experiment [1] deals with human Gq heterotrimer (human) (UniProt P50148).
For experiment [2], the target named is human Gi heterotrimer (human) (UniProt P63096).

“Jumping Spider Rhodopsin-1 (JSR1) reconstituted with all-trans retinal 6.11 (ATR6.11) (receptor)”: in experiment [1], the GTPase-Glo assay: GTP depletion by Gq heterotrimer with JSR1/ATR6.11, after illumination came out at 47% and the GTPase-Glo assay: GTP depletion by Gq heterotrimer with JSR1/ATR6.11, without illumination (13% without JSR1) was 28%. Besides, in experiment [2], the GTPase-Glo assay: GTP depletion by Gi heterotrimer with JSR1/ATR6.11, after illumination was 91% and the GTPase-Glo assay: GTP depletion by Gi heterotrimer with JSR1/ATR6.11, without illumination (58% without JSR1) turned out to be 80%.
